Results published in ChEMBL document CHEMBL5226323, “Targeting Nuclear Receptors in Neurodegeneration and Neuroinflammation” (J Med Chem, 2021).

Molecular target: T1, Retinoic acid receptor RXR-gamma (Homo sapiens, UniProt P48443)
T1 sequence (P48443 whole entry): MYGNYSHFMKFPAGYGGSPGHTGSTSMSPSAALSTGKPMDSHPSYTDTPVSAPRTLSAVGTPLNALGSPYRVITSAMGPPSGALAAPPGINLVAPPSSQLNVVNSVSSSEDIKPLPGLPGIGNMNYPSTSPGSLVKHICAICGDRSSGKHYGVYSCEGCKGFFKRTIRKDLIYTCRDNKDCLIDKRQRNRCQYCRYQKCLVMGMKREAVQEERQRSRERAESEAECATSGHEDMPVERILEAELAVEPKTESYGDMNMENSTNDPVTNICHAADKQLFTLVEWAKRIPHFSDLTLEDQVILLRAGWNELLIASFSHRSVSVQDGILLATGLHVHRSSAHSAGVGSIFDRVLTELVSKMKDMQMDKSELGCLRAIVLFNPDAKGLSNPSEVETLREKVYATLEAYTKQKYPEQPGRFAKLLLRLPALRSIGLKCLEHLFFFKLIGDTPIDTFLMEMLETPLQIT
Assay: Inhibition of RXRgamma (unknown origin)

CC1(C)CCC(C)(C)c2cc(N(CC3CC3)c3ncc(C(=O)O)cn3)ccc21
EC50: 8 nM
